Data reported in publication PMC12122834 (Nature Communications, 2024).

Key:
[1] = target: T1, DinG helicase (E. coli, UniProt P27296 1-716); assay: native gel or EMSA
T1 sequence (looked up): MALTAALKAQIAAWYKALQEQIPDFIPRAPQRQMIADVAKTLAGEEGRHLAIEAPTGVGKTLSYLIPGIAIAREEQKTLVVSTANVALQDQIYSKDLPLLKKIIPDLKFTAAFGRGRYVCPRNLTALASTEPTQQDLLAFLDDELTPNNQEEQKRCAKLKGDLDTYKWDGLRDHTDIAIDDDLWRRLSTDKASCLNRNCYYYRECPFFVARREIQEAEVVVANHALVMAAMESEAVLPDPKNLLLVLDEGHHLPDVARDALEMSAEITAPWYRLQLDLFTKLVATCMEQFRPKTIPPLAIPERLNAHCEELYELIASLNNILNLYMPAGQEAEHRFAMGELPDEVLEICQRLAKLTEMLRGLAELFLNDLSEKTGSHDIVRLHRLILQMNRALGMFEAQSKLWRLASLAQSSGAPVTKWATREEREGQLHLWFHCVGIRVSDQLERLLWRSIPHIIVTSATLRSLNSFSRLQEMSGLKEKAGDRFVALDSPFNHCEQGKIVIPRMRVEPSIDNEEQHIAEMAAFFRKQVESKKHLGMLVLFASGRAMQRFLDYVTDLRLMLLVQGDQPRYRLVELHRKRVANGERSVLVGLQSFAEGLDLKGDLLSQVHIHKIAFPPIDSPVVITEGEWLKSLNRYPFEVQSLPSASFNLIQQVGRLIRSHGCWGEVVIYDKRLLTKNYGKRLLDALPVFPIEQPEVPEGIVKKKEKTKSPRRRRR

[2] = target: T2, YoaA-χ helicase complex (wild type) (E. coli, UniProt P76257 1-636; P28905 1-147); assay: native gel or EMSA
T2 sequence (looked up) 1: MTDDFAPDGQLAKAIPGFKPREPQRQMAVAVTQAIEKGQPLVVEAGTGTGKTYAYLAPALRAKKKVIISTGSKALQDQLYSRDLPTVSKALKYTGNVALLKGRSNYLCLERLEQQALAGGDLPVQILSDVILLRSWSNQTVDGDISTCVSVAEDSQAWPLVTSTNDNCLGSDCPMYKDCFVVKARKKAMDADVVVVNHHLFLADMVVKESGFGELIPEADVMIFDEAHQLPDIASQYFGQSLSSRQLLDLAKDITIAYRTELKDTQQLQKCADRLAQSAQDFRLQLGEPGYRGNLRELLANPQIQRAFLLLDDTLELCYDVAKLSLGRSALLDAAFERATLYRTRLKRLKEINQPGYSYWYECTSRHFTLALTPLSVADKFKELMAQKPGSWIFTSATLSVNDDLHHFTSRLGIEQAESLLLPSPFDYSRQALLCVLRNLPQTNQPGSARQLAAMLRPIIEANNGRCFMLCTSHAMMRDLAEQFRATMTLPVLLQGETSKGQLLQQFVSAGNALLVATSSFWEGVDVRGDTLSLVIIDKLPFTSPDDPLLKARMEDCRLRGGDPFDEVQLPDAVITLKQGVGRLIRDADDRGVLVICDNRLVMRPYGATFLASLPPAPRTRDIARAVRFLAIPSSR
T2 sequence (looked up) 2: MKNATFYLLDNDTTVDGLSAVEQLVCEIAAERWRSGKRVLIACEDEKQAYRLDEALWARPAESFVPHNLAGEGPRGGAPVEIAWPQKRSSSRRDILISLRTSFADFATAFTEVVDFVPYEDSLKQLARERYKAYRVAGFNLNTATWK

binding result [1]: binds | binding result [2]: binds
B1: Single-stranded DNA binding protein (SSB), wild type (natural protein, E. coli, UniProt P0AGE0 1-178, looked up)
chain: MASRGVNKVILVGNLGQDPEVRYMPNGGAVANITLATSESWRDKATGEMKEQTEWHRVVLFGKLAEVASEYLRKGSQVYIEGQLRTRKWTDQSGQDRYTTEVVVNVGGTMQMLGGRQGGGAPAGGNIGGGQPQGGWGQPQQPQGGNQFSGGAQSRPQQSAPAAPSNEPPMDFDDDIPF
